According to article PMC3426641 (Biochemistry, 2012):

Tested on: kanamycin A
Assay: purified protein, by the assay type
Settings: other: Eis_Msm, pH 8.0
[1] = fixed AcCoA 0.1 mM, varying AG, 25 °C
[2] = KAN acetylation, [AcCoA] 200 μM, 25.0 °C
[3] = KAN acetylation, [AcCoA] 500 μM, 25.0 °C
[4] = random sequential mechanism, 25.0 °C

Eis_Msm (Mycolicibacterium smegmatis MC2 155)
Km [1]: 278 ± 36 µM | kcat [1]: 0.108 s⁻¹ | Km [2]: 450 ± 31 µM | kcat [2]: 0.18 s⁻¹ | Km [3]: 756 ± 66 µM | kcat [3]: 0.4 s⁻¹ | kcat [4]: 1.6 ± 0.5 s⁻¹ | kcat/Km [4]: 630 ± 200 s^−1M^−1
